Among the data in PubChem BioAssay (NCI) are growth values, retold here.

What all share (experiment): NCI-60 one-dose screen, 48 h (100 = growth as untreated, 0 = no growth, -100 = all killed)
Conditions in all cases: 10 µM unless noted

The subject of test [1] is NCI-H23 lung.
In test [2] the test system is NCI-H226 lung.
Test [3] has as its system NCI-H322M lung.
The test system of test [4] is HOP-62 NSCLC.
Test [5] relates to NCI-H460 lung.
For test [6], the system named is HOP-92 NSCLC.
In test [7] the test system is NCI-H522 lung.
Test [8] concerns A549/ATCC NSCLC.
Test [9] deals with 786-0 renal.
The subject of test [10] is COLO 205 colon.

“And” between values parts separate entries of the source, which are not always exact repeats. Identical values can stand only once. Only a part is listed here, and it is no random draw.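 The endpoint reported here, percent growth, reads 100 for growth as untreated, 0 for no net growth and -100 for all cells dead.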 The source made the active and inactive calls. Rule for the calls: active = growth percent below 10; inactive = the rest.

On to `O=[As](O)(c1ccccc1)c1ccc(O)cc1`, for which the growth was inactive: 95.3% in [1]; inactive: 106% in test [2]; inactive: 129% in test [3]; inactive: 88.1% in test [4]; inactive: 95.5% in [5]; inactive: 90.9% in test [6]. For the same molecule, the growth was inactive: 84% in [7], inactive: 104% in [8], inactive: 96.8% in test [9] and inactive: 125% in test [10].

On to `O=[N+]([O-])N=C1NCCN1`, for which the growth was inactive: 106% and inactive: 96.5% in [1]; inactive: 102% and inactive: 94.3% in test [2]; inactive: 127% and inactive: 77.3% in test [3]; inactive: 106% and inactive: 87.8% in test [4]; inactive: 108% and inactive: 105% in test [5]; inactive: 84.7% and inactive: 80.2% in [6]. Moreover, the growth in [7] is inactive: 100% and inactive: 88.7%; in test [8], inactive: 102% and inactive: 98.3%; in test [9] it was inactive: 109% and inactive: 108%; in test [10], inactive: 106% and inactive: 107%.

Regarding `Cc1ccccc1C(=O)N(CCCl)CCCl`, the growth in test [1] is inactive: 108%; in test [2] it was inactive: 93.8%; in test [3] it was inactive: 99%; in test [4], inactive: 106%; in test [5], inactive: 106%; in test [6] it was inactive: 84.8%. In addition, the growth in [7] was inactive: 88.5%; in test [8], inactive: 105%; in [9], inactive: 105%; in [10] it was inactive: 118%.

With `Cc1ccc(S(=O)(=O)n2cc([C@@]3(O)C[C@H](CC#N)OC3=O)c3ccccc32)cc1`, the growth was inactive: 27.2% in test [1]; active: 5.51% in test [2]; inactive: 38.4% in test [3]; inactive: 26% in [4]; active: 0.08% in test [5]; active: -39.2% in [6]. The growth in test [7] was inactive: 21.8%; in [8], inactive: 15.6%; in test [9], inactive: 17.8%; in test [10], active: 5.25%.

As to `O=[N+]([O-])c1ccc([N+](=O)[O-])cc1`, the growth in [1] is inactive: 91.4%; in [2] it was inactive: 106%; in test [3], inactive: 115%; in test [4], inactive: 112%; in test [5], inactive: 115%; in [6], inactive: 91.6%. In addition, the growth in test [7] was inactive: 105%; in test [8] it was inactive: 98.6%; in test [9] it was inactive: 113%; in test [10], inactive: 108%.

As to `O=[As](O)(c1ccc(Cl)cc1)C1CCCCC1O` (stereo not given), the growth in test [1] is inactive: 95.6%; in test [2], inactive: 95%; in test [3], inactive: 123%; in [4], inactive: 99.2%; in test [5], inactive: 114%; in [6], inactive: 60.9%. The growth was inactive: 58.3% in [7], inactive: 96.7% in test [8], inactive: 88.7% in [9] and inactive: 108% in test [10].

Turning to `COc1ccc(C2N=C(NN=C(CCl)CCl)SP2(=O)Nc2ncccn2)c(OC)c1` (stereo not given), the growth in [1] was inactive: 95.9% [100 µM]; in test [2], inactive: 83.1% [100 µM]; in test [3], inactive: 90.4% [100 µM]; in test [4], inactive: 94% [100 µM]; in [5] it was inactive: 103% [100 µM]; in test [6], inactive: 99.8% [100 µM]. For the same molecule, the growth in test [7] is inactive: 111% [100 µM]; in test [8] it was inactive: 104% [100 µM]; in test [9], inactive: 106% [100 µM]; in [10] it was inactive: 122% [100 µM].

Take `CCCCCCCCCCNP(=S)(Cl)Cl`: the growth in test [1] was inactive: 95.8%; in [2] it was inactive: 95.8%; in test [3], inactive: 99.8%; in test [4], inactive: 102%; in test [5] it was inactive: 100%; in test [6], inactive: 95.5%. For the same molecule, the growth in [7] was inactive: 94.2%; in [8], inactive: 97.9%; in test [9], inactive: 101%; in test [10], inactive: 110%.

Take `O=C(Nc1ccc([N+](=O)[O-])cc1)N(CCBr)CCBr`: the growth in test [1] was inactive: 101%; in test [2] it was inactive: 99.3%; in test [3] it was inactive: 94.8%; in test [4] it was inactive: 109%; in [5], inactive: 107%; in test [6], inactive: 82.9%. In addition, the growth in [7] was inactive: 94.8%; in test [8] it was inactive: 90.1%; in test [9] it was inactive: 95%; in test [10], inactive: 108%.

For `COC(=O)c1ccc(N2CCOP2(=O)Cl)cc1O` (stereo not given), the growth in [1] was inactive: 117%; in test [2], inactive: 108%; in [3], inactive: 101%; in test [4] it was inactive: 112%; in test [5], inactive: 110%; in test [6] it was inactive: 69.2%. Besides, the growth in test [7] was inactive: 94.9%; in [8], inactive: 92.2%; in [9], inactive: 96.7%; in test [10], inactive: 104%.

On to `O=[N+]([O-])c1cc2cn[nH]c2cc1[N+](=O)[O-]`, for which the growth in test [1] was inactive: 91.6%; in test [2] it was inactive: 91%; in test [3], inactive: 102%; in test [4], inactive: 102%; in [5] it was inactive: 107%; in test [6], inactive: 95.5%. Besides, the growth in [7] was inactive: 92.1%; in test [8] it was inactive: 100%; in [9], inactive: 113%; in test [10], inactive: 106%.

Regarding `CCOC(=O)c1sc2ncnc(NCCCl)c2c1C`, the growth in [1] is inactive: 98.9%; in test [2], inactive: 103%; in test [3], inactive: 100%; in test [4] it was inactive: 88.7%; in test [5], inactive: 100%; in [6], inactive: 71.9%. Moreover, the growth in test [7] was inactive: 109%; in test [8], inactive: 91.1%; in test [9] it was inactive: 106%; in [10], inactive: 101%.

`COc1cc([N+](=O)[O-])c(Nc2ccc(Cl)cc2[N+](=O)[O-])c([N+](=O)[O-])c1`: the growth in [1] is inactive: 39%; in [2] it was inactive: 80.3%; in test [3], inactive: 70%; in test [4], inactive: 56.2%; in test [5], inactive: 43.5%; in test [6], inactive: 85.9%. Further, the growth in [7] was active: -67.8%; in [8], inactive: 61.6%; in test [9] it was inactive: 86%; in test [10], inactive: 66.2%.

Consider `ClP1(Cl)=NP(Cl)(Cl)=NP(Cl)(Cl)=N1`, for which the growth in test [1] is inactive: 104%; in [2], inactive: 107%; in [3] it was inactive: 104%; in test [4], inactive: 109%; in [5], inactive: 99.8%; in [6] it was inactive: 96%. In addition, the growth in [7] is inactive: 84%; in [8] it was inactive: 103%; in test [9], inactive: 115%; in test [10], inactive: 112%.
